Test results from patent USRE39616E1, “Aminoindan derivatives” (priority 1996, dated 2007).

By UniProt entry, the sequences of proteins in these tests, tags left out.
UniProt P21396, whole entry: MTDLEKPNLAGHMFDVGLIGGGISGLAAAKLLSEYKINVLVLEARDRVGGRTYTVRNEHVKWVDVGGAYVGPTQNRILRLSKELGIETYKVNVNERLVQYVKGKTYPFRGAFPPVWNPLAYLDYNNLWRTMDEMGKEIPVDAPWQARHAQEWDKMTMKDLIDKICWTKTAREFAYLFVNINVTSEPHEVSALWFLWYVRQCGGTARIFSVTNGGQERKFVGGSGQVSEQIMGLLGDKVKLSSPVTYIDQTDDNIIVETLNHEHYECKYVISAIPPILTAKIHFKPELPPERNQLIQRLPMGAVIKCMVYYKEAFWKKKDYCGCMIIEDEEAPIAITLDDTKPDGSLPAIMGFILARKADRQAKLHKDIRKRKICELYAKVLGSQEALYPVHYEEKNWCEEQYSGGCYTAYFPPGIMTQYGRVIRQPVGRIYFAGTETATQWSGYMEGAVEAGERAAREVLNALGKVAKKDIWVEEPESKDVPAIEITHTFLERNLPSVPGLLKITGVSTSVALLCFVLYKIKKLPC
UniProt P19643, whole entry: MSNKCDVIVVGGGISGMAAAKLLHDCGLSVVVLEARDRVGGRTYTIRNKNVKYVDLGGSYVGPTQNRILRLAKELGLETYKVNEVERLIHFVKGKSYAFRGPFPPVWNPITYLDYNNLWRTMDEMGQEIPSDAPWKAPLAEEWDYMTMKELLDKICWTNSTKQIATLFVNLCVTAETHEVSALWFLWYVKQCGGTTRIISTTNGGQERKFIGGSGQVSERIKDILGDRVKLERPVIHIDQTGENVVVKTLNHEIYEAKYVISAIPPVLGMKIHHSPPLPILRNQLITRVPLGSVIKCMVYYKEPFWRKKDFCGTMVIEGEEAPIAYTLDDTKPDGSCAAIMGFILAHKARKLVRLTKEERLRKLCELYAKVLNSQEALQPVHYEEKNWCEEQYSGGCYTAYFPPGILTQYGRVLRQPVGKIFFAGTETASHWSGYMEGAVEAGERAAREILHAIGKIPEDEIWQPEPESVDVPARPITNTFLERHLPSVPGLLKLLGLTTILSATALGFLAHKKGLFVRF

Biological target: MAO-A (Rattus norvegicus, UniProt P21396)
Experiment: Inhibition of MAO activity in vitro, 5-HT as substrate
Type: biochemical
Parameters: The MAO enzyme source was a homogenate of rat brain in 0.3M sucrose; from tissue; host or cells: rat brain homogenate, 600 g supernatant
Settings: MAO-A Inhibition In vitro IC50, rat brain homogenate, 5-HT substrate
Method: (§1) Substrate concentrations used were 50 μM (PEA) and 1 mM (5-HT).

Structure (SMILES) | IC50
CN(C)C(=O)Oc1ccc2c(c1)C(N(C)C)CC2 (stereo not drawn) [Compound 12] | 130 µM

Biological target: MAO-B (Rattus norvegicus, UniProt P19643)
Experiment: Inhibition of MAO activity in vitro, PEA as substrate
Type: biochemical
Parameters: The MAO enzyme source was a homogenate of rat brain in 0.3M sucrose; from tissue; host or cells: rat brain homogenate, 600 g supernatant
Settings: MAO-B Inhibition In vitro IC50, rat brain homogenate
Method: as §1

Structure (SMILES) | IC50
CCN(C)C(=O)Oc1ccc2c(c1)C(NC)CC2 (stereo not drawn) [Compound 10] | > 1 mM
CCCN(C)C(=O)Oc1ccc2c(c1)C(N)CC2 (stereo not drawn) [Compound 2] | > 1 mM
C#CCNC1CCc2cccc(OC(=O)N(C)CC)c21 (stereo not drawn) [Compound 33] | > 1 mM
CN(C)C(=O)Oc1ccc2c(c1)C(N(C)C)CC2 (stereo not drawn) [Compound 12] | > 1 mM
CNC1CCc2ccc(OC(=O)N(C)C)cc21 (stereo not drawn) [Compound 8] | > 1 mM
